The target of the experiment is cAMP-specific 3',5'-cyclic phosphodiesterase 4B (Homo sapiens, UniProt Q07343).

Chains of the proteins cited; added tags and fusions are not shown. Lines headed by an entry give the natural chain unless they say otherwise; changes in a name come on top.
UniProt Q07343: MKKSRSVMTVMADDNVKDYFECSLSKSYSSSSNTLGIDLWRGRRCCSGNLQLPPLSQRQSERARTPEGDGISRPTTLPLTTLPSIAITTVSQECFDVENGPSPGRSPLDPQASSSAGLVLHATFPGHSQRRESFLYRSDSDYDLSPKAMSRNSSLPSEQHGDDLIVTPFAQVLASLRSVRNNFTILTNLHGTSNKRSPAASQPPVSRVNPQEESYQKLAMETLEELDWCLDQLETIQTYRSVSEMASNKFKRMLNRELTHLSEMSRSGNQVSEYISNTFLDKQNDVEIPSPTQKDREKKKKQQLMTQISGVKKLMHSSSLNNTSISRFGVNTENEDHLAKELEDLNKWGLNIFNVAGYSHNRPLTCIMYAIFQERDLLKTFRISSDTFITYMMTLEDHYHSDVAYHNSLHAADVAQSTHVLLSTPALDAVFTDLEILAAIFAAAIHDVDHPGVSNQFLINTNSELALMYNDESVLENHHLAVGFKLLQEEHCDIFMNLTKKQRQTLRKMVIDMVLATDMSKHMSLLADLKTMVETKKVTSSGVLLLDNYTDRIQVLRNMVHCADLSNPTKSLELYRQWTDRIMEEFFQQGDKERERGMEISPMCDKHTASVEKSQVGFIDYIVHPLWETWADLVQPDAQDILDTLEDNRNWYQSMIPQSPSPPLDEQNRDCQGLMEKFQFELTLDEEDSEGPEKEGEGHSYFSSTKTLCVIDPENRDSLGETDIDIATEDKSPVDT

By pIC50 is commonly meant the IC50 on a negative log10 scale, so that one unit is a factor of ten. A lower pIC50 goes with a large IC50.

pIC50: −log10 of the molar value.

`COc1ccc([C@H](Cc2c(Cl)c[n+]([O-])cc2Cl)OC(=O)c2ccc(CNC[C@@](O)(C(=O)O[C@H]3CN4CCC3CC4)c3ccccc3)s2)cc1OC` showed a negative logarithm of the IC50 (pIC50) of 8.26.
On to `COc1ccc([C@H](Cc2c(Cl)c[n+]([O-])cc2Cl)OC(=O)c2ccc(CNC[C@](O)(C(=O)O[C@H]3CN4CCC3CC4)c3ccccc3)s2)cc1OC`, for which the pIC50 is 8.26.

These data come from BindingDB's records for US9809582, “Aminoester derivatives” (2017).
